From ChEMBL document CHEMBL1158842, “Antiproliferative triterpene saponins from Entada africana” (J Nat Prod, 2006)

Legend:
[1] = test system: J774.A1; assay: Antiproliferative activity against mouse J774A1 cells after 72 hrs by MTT conversion assay; assay type: cell-based
[2] = test system: WEHI-164; assay: Antiproliferative activity against mouse WEHI164 cells after 72 hrs by MTT conversion assay

Sc1ncnc2nc[nH]c12
IC50 [1]: 3 nM | IC50 [2]: 15 nM
